# From patent publication US20060160798A1, “Viral polymerase inhibitors” (Boehringer Ingelheim (Canada) Ltd., priority 2001, published 2006)
# Read-outs that look alike come from different tables or passages of the source.
# Tests used:
# [1] = molecular target: T1, hepatitis C virus RNA dependant polymerase (NS5B) (Hepatitis C virus genotype 1b, UniProt P26663)
# [2] = molecular target: T1, hepatitis C virus RNA dependant polymerase (NS5B); experiment: biochemical; details: IC50, HCV NS5B polymerase, 10 nM enzyme, 1.5 hours at room temperature
compound,measurement,setting,value
CC(NC(=O)c1ccc2c(C3CCCC3)c(-c3ccccn3)n(C)c2c1)c1nc2ccc(C=CC(=O)O)cc2[nH]1 (stereo not drawn) [Entry 1018],IC50,"[1]; HCV NS5B polymerase, 10 nM enzyme, 1.5 hours at room temperature",< 500 nM
Cc1ccc(-c2c(C3CCCC3)c3ccc(C(=O)NC4(C(=O)Nc5ccc(-c6ccc(C(=O)O)o6)cc5)CCCC4)cc3n2C)cn1 [Entry 7033],IC50,[1]; Table 7,C B
CC(C)(NC(=O)c1ccc2c(C3CCCC3)c(-c3ccccn3)oc2c1)C(=O)Nc1ccc(/C=C/C(=O)O)cc1 [Entry 8006],IC50,[2],1 to 10 µM
